Measurements published in patent US6465482B2, “Arylpiperazinyl-cyclohexyl indole derivatives for the treatment of depression” (Wyeth, priority 1999, dated 2002).

The chains behind the UniProt entries cited, without tags or fusion partners.
UniProt P31652, whole entry: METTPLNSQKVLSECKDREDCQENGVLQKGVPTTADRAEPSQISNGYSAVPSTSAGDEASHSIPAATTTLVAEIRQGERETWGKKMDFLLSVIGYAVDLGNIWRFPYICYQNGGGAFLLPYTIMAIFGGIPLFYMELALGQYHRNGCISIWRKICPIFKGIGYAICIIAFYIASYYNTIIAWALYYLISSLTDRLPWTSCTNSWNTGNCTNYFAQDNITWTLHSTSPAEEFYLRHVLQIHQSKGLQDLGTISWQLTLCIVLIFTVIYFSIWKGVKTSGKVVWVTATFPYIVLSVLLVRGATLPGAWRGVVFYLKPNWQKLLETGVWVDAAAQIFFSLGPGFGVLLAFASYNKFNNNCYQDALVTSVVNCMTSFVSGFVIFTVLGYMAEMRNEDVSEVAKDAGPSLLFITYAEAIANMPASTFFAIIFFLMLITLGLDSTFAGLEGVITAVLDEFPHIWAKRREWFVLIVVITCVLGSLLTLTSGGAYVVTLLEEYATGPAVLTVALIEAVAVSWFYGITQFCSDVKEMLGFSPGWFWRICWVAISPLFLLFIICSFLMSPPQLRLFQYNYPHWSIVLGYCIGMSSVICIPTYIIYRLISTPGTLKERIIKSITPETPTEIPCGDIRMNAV

molecular target: T1, serotonin transporter (Rattus norvegicus, UniProt P31652); experiment: serotonin transporter affinity, 3H-paroxetine binding, frontal cortical membranes; conditions: 3H-paroxetine 0.1 nM; read-out: ST (Ki, nM,)
T1 construct: frontal cortical membranes prepared from male Sprague-Dawley rats; from tissue; host or cells: rat frontal cortex membranes

Row | Ki [nM] | SMILES
1 | 0.76 | Cn1cc([C@H]2CC[C@@H](N3CCN(c4cccc5[nH]ccc45)CC3)CC2)c2cc(C#N)ccc21 [Example 12a, 3-{(1,4-cis)-4-[4-(1H-indol-4-yl)-piperazin-1-yl]-cyclohexyl}-1-methyl-1H-indole-5-carbonitrile]
2 | 40 | CCCn1cc([C@H]2CC[C@H](N3CCN(c4cccc5[nH]ccc45)CC3)CC2)c2cc(C#N)ccc21 [Example 14b, 3-{(1,4-trans)-4-[4-(1H-indol-4-yl)-piperazin-1-yl]-cyclohexyl}-1-propyl-1H-indole-5-carbonitrile]
3 | 8.6 | Fc1ccc2[nH]cc([C@H]3CC[C@@H](N4CCN(c5cccc6cccnc56)CC4)CC3)c2c1 [Example 27a, 8-{4-[(1,4-cis)-4-(5-Fluoro-1H-indol-3-yl)-cyclohexyl]-piperazin-1-yl}-quinoline]
4 | 28 | Fc1ccc2[nH]cc([C@H]3CC[C@H](N4CCN(c5cccc6cccnc56)CC4)CC3)c2c1 [Example 27b, 8-{4-[(1,4-trans)-4-(5-Fluoro-1H-indol-3-yl)-cyclohexyl]-piperazin-1-yl}-quinoline]

Row | SMILES | Ki [nM]
5 | CCn1cc([C@H]2CC[C@@H](N3CCN(c4cccc5[nH]ccc45)CC3)CC2)c2cc(C#N)ccc21 [Example 13a, 1-Ethyl-3-{(1,4-cis)-4-[4-(1H-indol-4-yl)-piperazin-1-yl]-cyclohexyl}-1H-indole-5-carbonitrile] | 8.9
6 | CCn1cc([C@H]2CC[C@H](N3CCN(c4cccc5[nH]ccc45)CC3)CC2)c2cc(C#N)ccc21 [Example 13b, 1-Ethyl-3-{(1,4-trans)-4-[4-(1H-indol-4-yl)-piperazin-1-yl]-cyclohexyl}-1H-indole-5-carbonitrile] | 40
7 | CCCn1cc([C@H]2CC[C@@H](N3CCN(c4cccc5[nH]ccc45)CC3)CC2)c2cc(C#N)ccc21 [Example 14a, 3-{(1,4-cis)-4-[4-(1H-Indol-4-yl)-piperazin-1-yl]-cyclohexyl}-1-propyl-1H-indole-5-carbonitrile] | 17
